Reference: US20170151192A1, “METHODS, COMPOSITIONS AND DEVICES FOR TREATMENT OF MOTOR AND DEPRESSION SYMPTOMS ASSOCIATED WITH PARKINSON'S DISEASE” (N TO B LTD., priority 2013, published 2017)
Where two headings read alike, the source gives them in different places.

By UniProt entry, the sequences of proteins in these tests, tags left out.
UniProt P19643, whole entry: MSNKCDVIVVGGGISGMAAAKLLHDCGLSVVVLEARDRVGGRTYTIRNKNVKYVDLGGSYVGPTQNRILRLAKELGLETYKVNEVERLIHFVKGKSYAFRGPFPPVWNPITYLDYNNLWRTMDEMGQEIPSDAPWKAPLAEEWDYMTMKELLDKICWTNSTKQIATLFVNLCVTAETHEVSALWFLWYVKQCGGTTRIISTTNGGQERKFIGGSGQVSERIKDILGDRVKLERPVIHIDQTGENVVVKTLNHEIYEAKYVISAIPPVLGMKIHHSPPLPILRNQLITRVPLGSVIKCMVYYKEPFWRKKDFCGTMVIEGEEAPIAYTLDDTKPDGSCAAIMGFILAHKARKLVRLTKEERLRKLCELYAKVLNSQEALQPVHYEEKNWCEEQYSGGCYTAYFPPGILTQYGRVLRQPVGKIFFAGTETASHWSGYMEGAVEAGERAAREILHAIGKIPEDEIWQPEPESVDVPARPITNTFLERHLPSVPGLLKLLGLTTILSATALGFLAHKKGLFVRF
UniProt P21396, whole entry: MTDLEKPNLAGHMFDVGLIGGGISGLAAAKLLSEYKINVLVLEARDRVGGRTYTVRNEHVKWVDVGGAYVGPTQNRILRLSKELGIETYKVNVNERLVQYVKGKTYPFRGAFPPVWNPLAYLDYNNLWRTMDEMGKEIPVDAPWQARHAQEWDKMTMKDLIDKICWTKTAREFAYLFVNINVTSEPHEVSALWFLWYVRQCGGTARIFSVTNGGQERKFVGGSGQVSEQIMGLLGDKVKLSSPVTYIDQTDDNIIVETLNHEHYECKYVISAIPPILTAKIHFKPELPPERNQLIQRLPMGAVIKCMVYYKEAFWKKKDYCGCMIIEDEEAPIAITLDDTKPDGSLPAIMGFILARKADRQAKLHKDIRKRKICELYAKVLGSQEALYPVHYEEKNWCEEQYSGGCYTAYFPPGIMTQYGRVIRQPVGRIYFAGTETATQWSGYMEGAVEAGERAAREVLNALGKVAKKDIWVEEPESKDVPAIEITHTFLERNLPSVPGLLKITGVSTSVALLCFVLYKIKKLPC

How the values were obtained:
[1] = target: MAO-B (Rattus norvegicus, UniProt P19643); experiment: in vivo; conditions: inhaled or nasal
Protocol: (§1) Control liquid formulations included vehicle only.
(§2) The animals were acutely administered intranasally and sacrificed 4 hours following drug/vehicle administration. The brain regions, hippocampus and striatum, as well as the small intestine were dissected out. […] In brief, samples were dissected out at 4° C. and homogenized. Homogenates were incubated with [C^14]serotonin for 30 minutes (final concentration 100 μM) as a substrate for MAO-A, or with [C^14]phenylethylamine for 20 minutes (final concentration 100 μM) as a substrate for MAO-B. The radioactivity was determined by liquid- scintillation.

[2] = target: MAO-A (Rattus norvegicus, UniProt P21396); experiment: in vivo; conditions: inhaled or nasal
Protocol: as §1, §2

Structure (SMILES): C#CCN[C@@H]1CCc2ccccc21 [Rasagiline, N-propargyl-1-(R)-aminoindan]
- inhibition at 0.6 mg/kg ([1]; read-out: MAO-B Inhibition, Brain, intranasal, 0.6 mg/kg liquid formulation, 4 h): 96%
- inhibition at 0.6 mg/kg ([1]; read-out: MAO-B Inhibition, Brain, intranasal, 0.6 mg/kg powder formulation, 4 h): 96%
- inhibition at 6 mg/kg ([1]; read-out: MAO-B Inhibition, Brain, intranasal, 6 mg/kg liquid formulation, 4 h): 99%
- inhibition at 6 mg/kg ([1]; read-out: MAO-B Inhibition, Brain, intranasal, 6 mg/kg powder formulation, 4 h): 98%
- inhibition at 0.6 mg/kg ([1]; read-out: MAO-B Inhibition, Hippocampus, intranasal, 0.6 mg/kg powder formulation, 4 h): 97%
- inhibition at 1.5 mg/kg ([1]; read-out: MAO-B Inhibition, Hippocampus, intranasal, 1.5 mg/kg powder formulation, 4 h): 98%
- inhibition at 6 mg/kg ([1]; read-out: MAO-B Inhibition, Hippocampus, intranasal, 6 mg/kg powder formulation, 4 h): 99%
- inhibition at 0.6 mg/kg ([1]; read-out: MAO-B Inhibition, Liver, intranasal, 0.6 mg/kg liquid formulation, 4 h): 93%
- inhibition at 0.6 mg/kg ([1]; read-out: MAO-B Inhibition, Liver, intranasal, 0.6 mg/kg powder formulation, 4 h): 95%
- inhibition at 1.5 mg/kg ([1]; read-out: MAO-B Inhibition, Liver, intranasal, 1.5 mg/kg powder formulation, 4 h): 98%
- inhibition at 6 mg/kg ([1]; read-out: MAO-B Inhibition, Liver, intranasal, 6 mg/kg liquid formulation, 4 h): 98%
- inhibition at 6 mg/kg ([1]; read-out: MAO-B Inhibition, Liver, intranasal, 6 mg/kg powder formulation, 4 h): 98%
- inhibition at 1.5 mg/kg ([1]; read-out: MAO-B Inhibition, Striatum, intranasal, 1.5 mg/kg powder formulation, 4 h (only cell filled in this column)): 98%
- inhibition at 6 mg/kg ([2]; read-out: MAO-A inhibition, Brain, intranasal, 6 mg/kg powder formulation, 4 h): 96%
- inhibition at 0.6 mg/kg ([2]; read-out: MAO-A inhibition, Hippocampus, intranasal, 0.6 mg/kg powder formulation, 4 h): 66%
- inhibition at 6 mg/kg ([2]; read-out: MAO-A inhibition, Hippocampus, intranasal, 6 mg/kg powder formulation, 4 h): 93%
- inhibition at 1.5 mg/kg ([2]; read-out: MAO-A inhibition, Liver, intranasal, 1.5 mg/kg powder formulation, 4 h): 77%
- inhibition at 6 mg/kg ([2]; read-out: MAO-A inhibition, Liver, intranasal, 6 mg/kg powder formulation, 4 h): 94%
- inhibition at 0.6 mg/kg ([2]; read-out: MAO-A inhibition, Striatum, intranasal, 0.6 mg/kg liquid formulation, 4 h): 35%
- inhibition at 1.5 mg/kg ([2]; read-out: MAO-A inhibition, Striatum, intranasal, 1.5 mg/kg powder formulation, 4 h): 67%
- inhibition at 6 mg/kg ([2]; read-out: MAO-A inhibition, Striatum, intranasal, 6 mg/kg liquid formulation, 4 h): 94%
